We go through one molecule from patent publication US10793514B2, “Glutamine transport inhibitors and methods for treating cancer” (Vanderbilt University, priority 2016, dated 2020).

Chains of the proteins cited; added tags and fusions are not shown. Lines headed by an entry give the natural chain unless they say otherwise; changes in a name come on top.
UniProt D3ZJ25: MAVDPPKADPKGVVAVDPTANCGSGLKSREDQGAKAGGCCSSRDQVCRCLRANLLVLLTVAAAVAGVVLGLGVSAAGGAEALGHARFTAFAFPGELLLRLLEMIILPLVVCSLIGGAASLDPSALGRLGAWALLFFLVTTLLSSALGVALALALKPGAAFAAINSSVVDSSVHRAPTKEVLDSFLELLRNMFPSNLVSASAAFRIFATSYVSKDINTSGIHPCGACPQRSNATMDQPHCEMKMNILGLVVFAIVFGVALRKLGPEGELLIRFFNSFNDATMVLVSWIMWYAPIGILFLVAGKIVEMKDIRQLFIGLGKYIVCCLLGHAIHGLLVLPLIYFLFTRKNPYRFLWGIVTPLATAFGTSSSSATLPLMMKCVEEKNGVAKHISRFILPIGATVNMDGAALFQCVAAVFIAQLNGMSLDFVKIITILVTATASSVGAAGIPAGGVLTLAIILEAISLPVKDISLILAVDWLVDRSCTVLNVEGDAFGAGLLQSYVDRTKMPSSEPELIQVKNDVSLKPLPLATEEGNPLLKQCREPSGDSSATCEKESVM
UniProt Q15758: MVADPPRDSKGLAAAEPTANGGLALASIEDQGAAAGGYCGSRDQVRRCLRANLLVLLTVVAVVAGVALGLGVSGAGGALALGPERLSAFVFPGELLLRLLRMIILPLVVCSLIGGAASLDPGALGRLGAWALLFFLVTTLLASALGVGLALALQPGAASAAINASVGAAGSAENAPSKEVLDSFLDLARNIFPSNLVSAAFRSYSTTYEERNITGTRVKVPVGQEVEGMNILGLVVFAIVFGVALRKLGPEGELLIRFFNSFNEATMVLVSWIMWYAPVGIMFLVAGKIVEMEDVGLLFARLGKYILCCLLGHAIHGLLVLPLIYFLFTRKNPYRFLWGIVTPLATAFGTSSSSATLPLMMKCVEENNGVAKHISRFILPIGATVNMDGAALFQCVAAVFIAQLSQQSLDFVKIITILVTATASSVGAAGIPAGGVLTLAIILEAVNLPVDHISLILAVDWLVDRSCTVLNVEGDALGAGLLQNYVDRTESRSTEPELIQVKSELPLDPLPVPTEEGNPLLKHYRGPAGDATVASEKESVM

As usually defined, the IC50 is the concentration that inhibits the measured activity by half.

Each structure is given as a SMILES string.

The target of assay [1] is ASCT2 (Rattus norvegicus (Rat), UniProt D3ZJ25). Kind of assay: Inhibition of ASCT2-mediated glutamine uptake in C6 (rat) cells. Type of assay: cell-based. Conditions: mean of at least 3 biological replicates.
Assay [2] addresses ASCT2 (Homo sapiens (Human), UniProt Q15758). Put plainly: Inhibition of ASCT2-mediated 3H-glutamine uptake in live HEK293 (human) cells. It counts as cell-based. Conditions: mean of at least 3 biological replicates.

Regarding `N[C@H](CCN(Cc1ccccc1OCc1cccc(C(F)(F)F)c1)Cc1ccccc1OCc1cccc(C(F)(F)F)c1)C(=O)O` [Compound 23], the IC50 in assay [1] amounted to 22.5 µM; in assay [2], 17.6 µM.
